Test [1] addresses integrin αvβ6 on HT-29 cells (human) (UniProt P06756). Kind of test: cell-based or functional assay.
The target of test [2] is integrin αvβ5 on HT-29 cells (human) (UniProt P06756). Kind of test: cell-based or functional assay.

Sequences of proteins named here, by UniProt entry; tags and fusion partners are left off. Residues count along the entry.
UniProt P06756, 31-1048, chain 1 of 2: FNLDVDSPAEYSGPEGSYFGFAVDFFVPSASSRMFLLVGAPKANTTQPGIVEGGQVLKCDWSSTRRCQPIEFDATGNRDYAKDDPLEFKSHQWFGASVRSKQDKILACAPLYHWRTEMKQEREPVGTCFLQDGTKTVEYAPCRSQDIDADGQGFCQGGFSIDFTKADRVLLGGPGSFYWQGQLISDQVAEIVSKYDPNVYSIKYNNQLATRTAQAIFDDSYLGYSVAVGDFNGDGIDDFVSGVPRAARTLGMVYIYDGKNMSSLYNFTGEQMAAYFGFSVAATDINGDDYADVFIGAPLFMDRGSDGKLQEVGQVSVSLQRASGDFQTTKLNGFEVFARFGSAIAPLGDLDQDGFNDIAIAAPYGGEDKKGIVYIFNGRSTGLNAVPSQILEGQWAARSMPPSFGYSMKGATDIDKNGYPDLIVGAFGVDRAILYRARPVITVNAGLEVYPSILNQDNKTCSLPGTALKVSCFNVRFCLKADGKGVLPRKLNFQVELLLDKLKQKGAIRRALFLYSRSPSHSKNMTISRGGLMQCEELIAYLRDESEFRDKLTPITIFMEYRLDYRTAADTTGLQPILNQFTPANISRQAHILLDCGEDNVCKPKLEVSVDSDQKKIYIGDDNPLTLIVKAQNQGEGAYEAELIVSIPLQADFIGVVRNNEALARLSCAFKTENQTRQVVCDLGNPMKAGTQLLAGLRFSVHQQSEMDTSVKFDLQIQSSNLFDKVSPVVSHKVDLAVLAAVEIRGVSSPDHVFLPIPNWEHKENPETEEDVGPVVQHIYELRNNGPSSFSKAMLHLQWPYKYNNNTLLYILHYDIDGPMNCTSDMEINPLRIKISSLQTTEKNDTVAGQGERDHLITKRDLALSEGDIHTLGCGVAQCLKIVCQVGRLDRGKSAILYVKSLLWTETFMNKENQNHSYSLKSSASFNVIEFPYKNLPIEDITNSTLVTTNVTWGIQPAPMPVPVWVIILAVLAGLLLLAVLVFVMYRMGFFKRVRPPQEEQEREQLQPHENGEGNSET

This is an account of results in patent US20200010516A1.

The substance “^39SRAGK-^46RIPRGDMP-^66RYH (Rho wild-type) (from UniProt P30403 408-475) (ligand)” yielded an IC50, adhesion of HT-29 cells to fibronectin in test [1] of 176 nM. The same substance had an IC50, adhesion of HT-29 cells to vitronectin in test [2] of 94.4 nM.
